Source: patent US5091547A, “Phenylacetic acid derivative and process for making same” (priority 1989, dated 1992)
Values joined by “and” are separate entries in the source; they are usually repeats but may differ in a detail not shown here. Identical values can stand only once.

Experiments:
[1] = test system: ulcerous lesions in the stomach and intestine; assay: Comparative ulcerogenic action, macroscopic lesion indices (Adami's criterion); type: in vivo, Female Wistar rats
Description: Group I: control (excipient) (n=8)
Group II: sodium salt 10 mg/kg (n=8)
Group IV: sodium salt 10 mg/kg+zinc sulphate 2.5 mg/kg (n=8) (equivalent doses).
The products were administered orally every day for four consecutive days. The animals were given no food during the 24 hours prior to the last dose.

[2] = test system: ulcers induced by absolute ethanol; assay: Protective activity, ulcers induced by absolute ethanol; type: in vivo, rats; conditions: LV-216 11 mg/kg; sodium salt at equimolecular dose; control 86.3 ± 9.4
Description: As explained previously, the compound of formula (I), which shall henceforth be referred to herein as LV-216, combines the advantage of anti-inflammatory and protective action.
Using the experimental model of ulcers induced by absolute ethanol described by Rober et al (Gastroenterology, 77: 433, 1979) the cytoprotective activity of LV-216 was compared with that of 2-(2,6-dichloroaniline)-phenylacetic acid at equimolecular doses and with a control group that was given only excipient.

[3] = Water solubility; type: physicochemical; conditions: both anhydrous and hydrated form

For “zinc compound of 2-(2,6-dichloroaniline)-phenylacetic acid [LV-216]”, the “Macroscopic lesion index (x ± e)” value ([1]; oral, daily for four consecutive days, SS 10 mg/kg, LV-216 11 mg/kg, SS 10 mg/kg + zinc sulphate 2.5 mg/kg, n=8, control 0.4 ± 0.2) was 1.1 ± 0.3 and 1.1, the “ulcerous index versus control (in words)” value ([1]; versus control) was “not significant versus the control” and the “t vs SS (lesion index)” value ([1]; versus sodium salt) was “*** (p < 0.001)”. The “mm lesion (lesion index)” value [2] was 36.1 ± 8.9 mm and the “Water solubility (in words)” value [3] was “extremely water-insoluble”.
